# CycPeptMPDB entries from one study

Source: CycPeptMPDB (Li et al. 2023), which took these values from Townsend et al. 2020, doi:10.26434/chemrxiv.13335941.v1.

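Lipid, pH, incubation time, direction and concentration are not recorded in the data file. The list need not hold all peptides of the study. Entries at the database's floor value (log10 P of -10) are not listed.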

PAMPA measures passive passage through an artificial lipid membrane.
Values are log10 P with P in cm/s, so -5 is more permeable than -7.

| SMILES | PAMPA (log10 cm/s) |
|---|---|
| CCCN1CC(=O)N(Cc2ccccc2)CC(=O)N[C@@H](CC(C)C)C(=O)N2CCC[C@@H]2C(=O)N(C)[C@H](CC(C)C)C(=O)N[C@@H](Cc2ccccc2)C(=O)N2CCC[C@@H]2C1=O | -5.23 |
| CCCN1CC(=O)N(C)[C@H](CC(C)C)C(=O)N(C)[C@@H](CC(C)C)C(=O)N2CCC[C@@H]2C(=O)N(C)[C@@H](CC(C)C)C(=O)N[C@@H](Cc2ccccc2)C(=O)N2CCC[C@H]2C1=O | -4.96 |
| CC(C)C[C@@H]1NC(=O)[C@H]2CCCN2C(=O)[C@H](CC(C)C)NC(=O)[C@H](CC(C)C)N(C)C(=O)C[C@H](Cc2ccccc2)NC(=O)[C@H]2CCCN2C(=O)[C@H](Cc2ccccc2)NC1=O | -5.60 |
| CC(C)C[C@@H]1NC(=O)[C@H]2CCCN2C(=O)[C@@H](CC(C)C)N(C)C(=O)[C@H](CC(C)C)NC(=O)[C@@H](C)N(C)C(=O)[C@H]2CCCN2C(=O)[C@H](Cc2ccccc2)NC1=O | -6.21 |
| CC(C)C[C@@H]1NC(=O)[C@@H]2CCCN2C(=O)[C@H](CC(C)C)N(C)C(=O)[C@H](CC(C)C)NC(=O)[C@H](C)N(C)C(=O)[C@H]2CCCN2C(=O)[C@H](Cc2ccccc2)NC1=O | -5.33 |
| CC(C)C[C@H]1C(=O)N[C@@H](Cc2ccccc2)CC(=O)N2CCC[C@H]2C(=O)N(C)[C@@H](CC(C)C)C(=O)N[C@@H](Cc2ccccc2)C(=O)N2CCC[C@H]2C(=O)N(C)[C@@H](C)C(=O)N1C | -5.23 |
| CC(C)C[C@@H]1C(=O)N(C)[C@@H](CC(C)C)C(=O)N2CCC[C@H]2C(=O)N(C)[C@H](CC(C)C)C(=O)N[C@@H](Cc2ccccc2)C(=O)N[C@H](C)C(=O)N1C | -5.32 |
| CCCN1CC(=O)N[C@@H](CC(C)C)C(=O)N(C)[C@H](CC(C)C)C(=O)N2CCC[C@H]2C(=O)N[C@@H](CC(C)C)C(=O)N[C@@H](Cc2ccccc2)C(=O)N2CCC[C@H]2C1=O | -5.88 |
| CCCN1CC(=O)N(C)[C@H](CC(C)C)C(=O)N[C@H](CC(C)C)C(=O)N2CCC[C@@H]2C(=O)N(C)[C@H](CC(C)C)C(=O)N[C@@H](Cc2ccccc2)C(=O)N2CCC[C@@H]2C1=O | -5.24 |
| CC(C)C[C@H]1NC(=O)[C@H]2CCCN2C(=O)C[C@H](Cc2ccccc2)NC(=O)[C@H](CC(C)C)N(C)C(=O)[C@@H](C)NC(=O)[C@H]2CCCN2C(=O)[C@H](Cc2ccccc2)NC1=O | -5.76 |
| CC(C)C[C@@H]1NC(=O)[C@H]2CCCN2C(=O)[C@H](CC(C)C)NC(=O)[C@@H](CC(C)C)NC(=O)C[C@H](Cc2ccccc2)NC(=O)[C@H]2CCCN2C(=O)[C@H](Cc2ccccc2)NC1=O | -5.77 |
| CCCN1CC(=O)N(C)[C@H](CC(C)C)C(=O)N(C)[C@H](CC(C)C)C(=O)N2CCC[C@@H]2C(=O)N(Cc2ccccc2)CC(=O)N[C@@H](Cc2ccccc2)C1=O | -5.70 |

The first 2 entries again:

SMILES	PAMPA (log10 cm/s)
CCCN1CC(=O)N(Cc2ccccc2)CC(=O)N[C@@H](CC(C)C)C(=O)N2CCC[C@@H]2C(=O)N(C)[C@H](CC(C)C)C(=O)N[C@@H](Cc2ccccc2)C(=O)N2CCC[C@@H]2C1=O	-5.23
CCCN1CC(=O)N(C)[C@H](CC(C)C)C(=O)N(C)[C@@H](CC(C)C)C(=O)N2CCC[C@@H]2C(=O)N(C)[C@@H](CC(C)C)C(=O)N[C@@H](Cc2ccccc2)C(=O)N2CCC[C@H]2C1=O	-4.96